The list shows a part of the results, in another mix than the full data. Measured potencies and affinities stand elsewhere. Active and inactive are the calls of the source.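 How the source made its calls: active means first-screen hits whose inhibition reached a set limit at any dose in the follow-up dose series; inconclusive means inhibition above the set first-screen limit but never retested; inactive means the rest.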
biological target: Rac GTPase-activating protein 1 (Homo sapiens) (UniProt Q9H0H5); assay: MgcRacGAP GTPase-activating activity inhibitors, confirmation, biochemical, ADP Hunter fluorescence, primary and confirmatory (AID 624330); details: MgcRacGAP-stimulated Rac1 GTP hydrolysis, at 30 µM, active compounds read high, GST-tagged Rac1 F28L mutant substrate;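 further: fluorescence reports GDP produced by GAP-driven GTP hydrolysis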

By UniProt entry, the sequences of proteins in these tests, tags left out.
UniProt Q9H0H5, whole entry: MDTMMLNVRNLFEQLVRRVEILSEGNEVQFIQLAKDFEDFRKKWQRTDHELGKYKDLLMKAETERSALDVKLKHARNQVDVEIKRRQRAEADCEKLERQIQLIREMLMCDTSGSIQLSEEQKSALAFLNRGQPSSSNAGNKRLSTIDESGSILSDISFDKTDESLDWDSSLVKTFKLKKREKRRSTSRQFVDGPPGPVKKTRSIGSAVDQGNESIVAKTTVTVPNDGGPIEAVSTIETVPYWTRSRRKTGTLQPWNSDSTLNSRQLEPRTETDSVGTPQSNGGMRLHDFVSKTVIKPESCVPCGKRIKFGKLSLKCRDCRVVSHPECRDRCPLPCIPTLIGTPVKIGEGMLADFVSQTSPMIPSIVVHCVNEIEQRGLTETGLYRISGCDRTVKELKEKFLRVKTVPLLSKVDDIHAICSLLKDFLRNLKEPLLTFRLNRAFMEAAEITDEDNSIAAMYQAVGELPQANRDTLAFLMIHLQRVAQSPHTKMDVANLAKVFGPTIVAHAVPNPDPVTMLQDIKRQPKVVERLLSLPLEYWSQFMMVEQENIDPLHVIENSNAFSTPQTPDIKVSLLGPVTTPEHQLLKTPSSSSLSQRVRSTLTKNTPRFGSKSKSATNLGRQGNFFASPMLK

Row | SMILES | inhibition
1 | CP(=O)(Nc1cccc(Br)c1)Oc1ccccc1 (stereo unspecified) | inactive: 13.2%

— PubChem BioAssay AID624330 (Southern Research Specialized Biocontainment Screening …, 2012)
